In ChEMBL document CHEMBL1126876, “Synthesis of paraxanthine analogs (1,7-disubstituted xanthines) and other xanthines unsubstituted at the 3-position: structure-activity relationships at adenosine receptors” (J Med Chem, 1993):
pKi: −log10 of the molar value.

The chains behind the UniProt entries cited, without tags or fusion partners.
UniProt P25099, whole entry: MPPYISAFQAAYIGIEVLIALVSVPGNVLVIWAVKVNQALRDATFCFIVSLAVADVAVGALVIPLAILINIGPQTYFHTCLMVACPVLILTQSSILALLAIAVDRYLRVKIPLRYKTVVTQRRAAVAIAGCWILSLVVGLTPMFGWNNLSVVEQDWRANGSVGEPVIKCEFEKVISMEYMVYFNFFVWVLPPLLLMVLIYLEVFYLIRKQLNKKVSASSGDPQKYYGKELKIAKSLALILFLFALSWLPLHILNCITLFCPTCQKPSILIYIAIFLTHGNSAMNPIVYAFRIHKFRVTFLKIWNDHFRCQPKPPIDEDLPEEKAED

Biological target: Adenosine receptor A1 (Rattus norvegicus, UniProt P25099)
Assay: Binding affinity at Adenosine A1 receptor in rat brain cortical membrane using [3H]N6-R-phenylisopropyladenosine (R-PIA) as radioligand
Assay type: cell membranes

CCCCn1c(=O)[nH]c2nc[nH]c2c1=O
pKi: 5.05
